# Laboratory results as given in ChEMBL document CHEMBL3994596, “Structural Basis for Potency and Promiscuity in Poly(ADP-ribose) Polymerase (PARP) and Tankyrase Inhibitors” (J Med Chem, 2017).
# The chains behind the UniProt entries cited, without tags or fusion partners. Where a name states a change or a piece, a line headed by the entry shows the natural chain unless it says otherwise.
# UniProt P09874, whole entry: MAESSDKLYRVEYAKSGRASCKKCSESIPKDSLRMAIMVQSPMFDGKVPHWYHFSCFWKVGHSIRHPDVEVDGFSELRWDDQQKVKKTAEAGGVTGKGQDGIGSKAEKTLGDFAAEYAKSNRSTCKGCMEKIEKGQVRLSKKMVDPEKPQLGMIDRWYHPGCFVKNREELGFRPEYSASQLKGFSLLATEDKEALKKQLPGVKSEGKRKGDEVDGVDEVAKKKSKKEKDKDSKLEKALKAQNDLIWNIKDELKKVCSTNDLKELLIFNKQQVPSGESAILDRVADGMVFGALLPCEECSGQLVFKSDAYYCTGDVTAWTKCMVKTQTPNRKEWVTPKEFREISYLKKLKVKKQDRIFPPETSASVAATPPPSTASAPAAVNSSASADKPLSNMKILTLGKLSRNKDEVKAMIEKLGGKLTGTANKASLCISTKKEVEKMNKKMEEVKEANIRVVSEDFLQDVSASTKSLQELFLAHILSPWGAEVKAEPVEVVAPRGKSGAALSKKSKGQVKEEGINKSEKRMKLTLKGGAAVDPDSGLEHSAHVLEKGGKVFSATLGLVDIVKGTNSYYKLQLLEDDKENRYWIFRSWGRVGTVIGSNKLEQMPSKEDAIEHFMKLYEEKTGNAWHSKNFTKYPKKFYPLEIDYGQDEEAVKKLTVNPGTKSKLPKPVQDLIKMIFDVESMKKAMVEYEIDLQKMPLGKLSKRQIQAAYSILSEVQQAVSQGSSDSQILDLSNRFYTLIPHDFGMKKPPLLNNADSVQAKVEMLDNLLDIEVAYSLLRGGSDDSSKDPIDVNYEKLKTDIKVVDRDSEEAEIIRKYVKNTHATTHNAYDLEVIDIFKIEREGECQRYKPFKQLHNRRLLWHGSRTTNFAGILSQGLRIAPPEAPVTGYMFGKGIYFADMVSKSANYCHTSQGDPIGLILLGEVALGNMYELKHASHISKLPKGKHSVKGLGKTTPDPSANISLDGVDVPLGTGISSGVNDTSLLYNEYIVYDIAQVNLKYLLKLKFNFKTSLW
# UniProt Q9UGN5: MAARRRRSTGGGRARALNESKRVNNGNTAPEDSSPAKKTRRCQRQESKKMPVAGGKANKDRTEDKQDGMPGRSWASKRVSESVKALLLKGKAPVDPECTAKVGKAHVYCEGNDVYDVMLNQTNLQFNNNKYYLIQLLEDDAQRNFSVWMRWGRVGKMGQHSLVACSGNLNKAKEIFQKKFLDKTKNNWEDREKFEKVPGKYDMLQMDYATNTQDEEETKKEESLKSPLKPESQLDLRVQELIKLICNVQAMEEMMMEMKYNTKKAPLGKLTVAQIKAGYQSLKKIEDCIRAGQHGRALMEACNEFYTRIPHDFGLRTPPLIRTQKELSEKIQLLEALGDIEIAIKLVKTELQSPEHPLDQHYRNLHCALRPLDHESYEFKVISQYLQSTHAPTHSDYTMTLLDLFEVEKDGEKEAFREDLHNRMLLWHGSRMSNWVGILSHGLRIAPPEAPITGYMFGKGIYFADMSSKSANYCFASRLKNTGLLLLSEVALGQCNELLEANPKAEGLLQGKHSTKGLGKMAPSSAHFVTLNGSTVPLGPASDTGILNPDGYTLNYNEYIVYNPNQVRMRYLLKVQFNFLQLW
# UniProt Q460N5, whole entry: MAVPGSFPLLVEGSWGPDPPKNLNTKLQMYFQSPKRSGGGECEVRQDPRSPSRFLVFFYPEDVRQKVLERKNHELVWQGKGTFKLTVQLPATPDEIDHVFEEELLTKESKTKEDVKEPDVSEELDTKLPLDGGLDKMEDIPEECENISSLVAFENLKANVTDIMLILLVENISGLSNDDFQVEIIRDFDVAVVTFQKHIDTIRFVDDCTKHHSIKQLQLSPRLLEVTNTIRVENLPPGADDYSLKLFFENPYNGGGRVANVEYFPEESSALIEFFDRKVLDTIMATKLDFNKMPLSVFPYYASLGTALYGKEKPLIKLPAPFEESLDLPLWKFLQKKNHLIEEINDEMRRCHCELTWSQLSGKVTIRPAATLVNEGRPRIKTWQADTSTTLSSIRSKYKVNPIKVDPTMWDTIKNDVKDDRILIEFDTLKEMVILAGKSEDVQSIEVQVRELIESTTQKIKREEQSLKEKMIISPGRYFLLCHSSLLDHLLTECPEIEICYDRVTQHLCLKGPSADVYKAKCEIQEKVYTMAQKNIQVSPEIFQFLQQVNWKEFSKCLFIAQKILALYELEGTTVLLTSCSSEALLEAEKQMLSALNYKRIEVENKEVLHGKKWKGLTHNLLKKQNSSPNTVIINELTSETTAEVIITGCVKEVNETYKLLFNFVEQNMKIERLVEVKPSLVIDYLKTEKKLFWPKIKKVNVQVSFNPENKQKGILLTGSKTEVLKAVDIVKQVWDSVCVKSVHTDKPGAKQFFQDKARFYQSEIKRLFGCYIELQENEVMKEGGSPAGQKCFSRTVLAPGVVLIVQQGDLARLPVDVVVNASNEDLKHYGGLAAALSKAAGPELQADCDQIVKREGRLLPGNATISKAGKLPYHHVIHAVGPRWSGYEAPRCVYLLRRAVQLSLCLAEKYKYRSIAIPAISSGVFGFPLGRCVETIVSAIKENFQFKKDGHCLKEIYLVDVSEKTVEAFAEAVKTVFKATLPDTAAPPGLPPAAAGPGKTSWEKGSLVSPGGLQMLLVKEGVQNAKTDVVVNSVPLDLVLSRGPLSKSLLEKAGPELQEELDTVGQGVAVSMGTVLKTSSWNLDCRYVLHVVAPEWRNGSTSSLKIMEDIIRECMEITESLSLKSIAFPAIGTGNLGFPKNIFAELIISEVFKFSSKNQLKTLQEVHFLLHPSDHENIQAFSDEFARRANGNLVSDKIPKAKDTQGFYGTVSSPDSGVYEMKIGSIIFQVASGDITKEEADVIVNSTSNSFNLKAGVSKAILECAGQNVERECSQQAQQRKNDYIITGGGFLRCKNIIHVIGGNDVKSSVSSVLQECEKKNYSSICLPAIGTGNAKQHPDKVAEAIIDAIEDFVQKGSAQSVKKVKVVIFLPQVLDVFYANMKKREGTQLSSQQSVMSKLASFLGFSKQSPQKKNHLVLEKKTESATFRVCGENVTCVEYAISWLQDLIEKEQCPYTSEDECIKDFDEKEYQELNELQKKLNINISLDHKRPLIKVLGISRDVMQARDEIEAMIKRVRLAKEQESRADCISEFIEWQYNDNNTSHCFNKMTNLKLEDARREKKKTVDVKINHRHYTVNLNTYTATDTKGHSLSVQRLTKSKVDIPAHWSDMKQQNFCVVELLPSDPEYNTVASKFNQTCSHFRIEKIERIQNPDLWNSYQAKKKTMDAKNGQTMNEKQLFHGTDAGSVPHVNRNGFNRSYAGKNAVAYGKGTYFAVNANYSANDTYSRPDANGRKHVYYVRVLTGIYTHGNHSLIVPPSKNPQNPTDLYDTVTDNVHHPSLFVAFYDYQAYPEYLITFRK
# UniProt Q9UKK3: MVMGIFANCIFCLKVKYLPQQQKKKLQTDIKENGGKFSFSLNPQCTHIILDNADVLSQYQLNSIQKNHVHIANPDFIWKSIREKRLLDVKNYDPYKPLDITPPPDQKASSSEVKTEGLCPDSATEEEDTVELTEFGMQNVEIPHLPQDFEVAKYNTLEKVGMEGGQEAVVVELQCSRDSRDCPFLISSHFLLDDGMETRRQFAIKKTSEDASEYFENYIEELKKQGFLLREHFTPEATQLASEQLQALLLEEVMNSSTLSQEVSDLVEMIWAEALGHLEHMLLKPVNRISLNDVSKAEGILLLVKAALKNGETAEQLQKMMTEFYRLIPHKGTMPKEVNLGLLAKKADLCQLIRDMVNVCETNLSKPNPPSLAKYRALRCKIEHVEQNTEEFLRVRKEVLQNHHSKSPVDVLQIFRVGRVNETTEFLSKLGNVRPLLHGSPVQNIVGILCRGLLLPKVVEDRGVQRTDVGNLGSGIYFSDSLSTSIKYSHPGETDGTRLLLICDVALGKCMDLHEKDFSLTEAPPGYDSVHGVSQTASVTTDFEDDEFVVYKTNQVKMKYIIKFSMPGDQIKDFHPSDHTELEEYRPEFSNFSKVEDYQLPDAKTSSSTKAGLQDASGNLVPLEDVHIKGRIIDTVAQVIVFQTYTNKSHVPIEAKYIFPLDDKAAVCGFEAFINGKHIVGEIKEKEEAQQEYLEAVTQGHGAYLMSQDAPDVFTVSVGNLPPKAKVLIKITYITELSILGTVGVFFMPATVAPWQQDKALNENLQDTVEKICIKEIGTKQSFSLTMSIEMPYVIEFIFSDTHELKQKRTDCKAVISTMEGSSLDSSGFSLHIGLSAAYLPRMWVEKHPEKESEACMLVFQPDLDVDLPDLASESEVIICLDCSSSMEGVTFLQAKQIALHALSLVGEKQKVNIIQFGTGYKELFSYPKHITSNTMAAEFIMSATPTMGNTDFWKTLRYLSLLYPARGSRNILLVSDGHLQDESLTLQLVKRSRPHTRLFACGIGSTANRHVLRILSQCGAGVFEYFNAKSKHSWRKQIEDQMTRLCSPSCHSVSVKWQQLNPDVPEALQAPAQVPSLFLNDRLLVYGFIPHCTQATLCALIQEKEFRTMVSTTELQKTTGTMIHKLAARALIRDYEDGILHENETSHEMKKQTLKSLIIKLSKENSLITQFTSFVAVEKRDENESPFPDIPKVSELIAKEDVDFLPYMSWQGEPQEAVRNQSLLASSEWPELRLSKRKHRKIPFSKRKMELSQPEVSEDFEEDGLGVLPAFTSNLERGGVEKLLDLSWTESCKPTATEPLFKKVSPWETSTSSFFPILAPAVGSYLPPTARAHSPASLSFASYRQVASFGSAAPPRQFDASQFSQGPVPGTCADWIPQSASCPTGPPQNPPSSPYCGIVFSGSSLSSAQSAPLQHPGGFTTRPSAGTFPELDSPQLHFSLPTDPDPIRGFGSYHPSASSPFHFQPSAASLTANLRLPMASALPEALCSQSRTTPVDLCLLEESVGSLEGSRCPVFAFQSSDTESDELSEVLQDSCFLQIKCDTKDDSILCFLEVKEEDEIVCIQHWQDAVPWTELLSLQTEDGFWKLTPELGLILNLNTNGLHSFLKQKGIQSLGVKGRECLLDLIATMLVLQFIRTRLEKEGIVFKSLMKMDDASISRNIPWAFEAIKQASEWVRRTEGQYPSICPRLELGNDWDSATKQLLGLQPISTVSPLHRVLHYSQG
# Columns and labels:
# [1] = target: Poly [ADP-ribose] polymerase 1 (Homo sapiens, UniProt P09874)
# [2] = target: T1, Poly [ADP-ribose] polymerase 2 (Homo sapiens, UniProt Q9UGN5)
# [3] = target: Protein mono-ADP-ribosyltransferase PARP14 (Homo sapiens, UniProt Q460N5)
# [4] = target: T2, Protein mono-ADP-ribosyltransferase PARP3 (Homo sapiens, UniProt Q9Y6F1)
# T2 sequence (Q9Y6F1 whole entry): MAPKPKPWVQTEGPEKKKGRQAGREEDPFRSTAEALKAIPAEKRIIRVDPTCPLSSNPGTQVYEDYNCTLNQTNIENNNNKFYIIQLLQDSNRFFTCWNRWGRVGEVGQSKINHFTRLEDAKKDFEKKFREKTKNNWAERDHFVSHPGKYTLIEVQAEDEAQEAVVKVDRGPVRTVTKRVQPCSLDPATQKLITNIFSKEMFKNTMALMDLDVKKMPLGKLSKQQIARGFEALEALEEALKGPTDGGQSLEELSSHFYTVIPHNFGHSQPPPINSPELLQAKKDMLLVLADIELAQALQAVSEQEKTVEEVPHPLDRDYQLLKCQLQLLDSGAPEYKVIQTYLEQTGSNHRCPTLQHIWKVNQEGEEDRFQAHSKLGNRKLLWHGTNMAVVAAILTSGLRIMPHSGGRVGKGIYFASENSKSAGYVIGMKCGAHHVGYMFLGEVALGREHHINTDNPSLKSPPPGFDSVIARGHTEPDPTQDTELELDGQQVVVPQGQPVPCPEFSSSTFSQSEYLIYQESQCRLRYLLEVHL
# [5] = target: T3, Poly [ADP-ribose] polymerase tankyrase-1 (Homo sapiens, UniProt O95271)
# T3 sequence (O95271 whole entry): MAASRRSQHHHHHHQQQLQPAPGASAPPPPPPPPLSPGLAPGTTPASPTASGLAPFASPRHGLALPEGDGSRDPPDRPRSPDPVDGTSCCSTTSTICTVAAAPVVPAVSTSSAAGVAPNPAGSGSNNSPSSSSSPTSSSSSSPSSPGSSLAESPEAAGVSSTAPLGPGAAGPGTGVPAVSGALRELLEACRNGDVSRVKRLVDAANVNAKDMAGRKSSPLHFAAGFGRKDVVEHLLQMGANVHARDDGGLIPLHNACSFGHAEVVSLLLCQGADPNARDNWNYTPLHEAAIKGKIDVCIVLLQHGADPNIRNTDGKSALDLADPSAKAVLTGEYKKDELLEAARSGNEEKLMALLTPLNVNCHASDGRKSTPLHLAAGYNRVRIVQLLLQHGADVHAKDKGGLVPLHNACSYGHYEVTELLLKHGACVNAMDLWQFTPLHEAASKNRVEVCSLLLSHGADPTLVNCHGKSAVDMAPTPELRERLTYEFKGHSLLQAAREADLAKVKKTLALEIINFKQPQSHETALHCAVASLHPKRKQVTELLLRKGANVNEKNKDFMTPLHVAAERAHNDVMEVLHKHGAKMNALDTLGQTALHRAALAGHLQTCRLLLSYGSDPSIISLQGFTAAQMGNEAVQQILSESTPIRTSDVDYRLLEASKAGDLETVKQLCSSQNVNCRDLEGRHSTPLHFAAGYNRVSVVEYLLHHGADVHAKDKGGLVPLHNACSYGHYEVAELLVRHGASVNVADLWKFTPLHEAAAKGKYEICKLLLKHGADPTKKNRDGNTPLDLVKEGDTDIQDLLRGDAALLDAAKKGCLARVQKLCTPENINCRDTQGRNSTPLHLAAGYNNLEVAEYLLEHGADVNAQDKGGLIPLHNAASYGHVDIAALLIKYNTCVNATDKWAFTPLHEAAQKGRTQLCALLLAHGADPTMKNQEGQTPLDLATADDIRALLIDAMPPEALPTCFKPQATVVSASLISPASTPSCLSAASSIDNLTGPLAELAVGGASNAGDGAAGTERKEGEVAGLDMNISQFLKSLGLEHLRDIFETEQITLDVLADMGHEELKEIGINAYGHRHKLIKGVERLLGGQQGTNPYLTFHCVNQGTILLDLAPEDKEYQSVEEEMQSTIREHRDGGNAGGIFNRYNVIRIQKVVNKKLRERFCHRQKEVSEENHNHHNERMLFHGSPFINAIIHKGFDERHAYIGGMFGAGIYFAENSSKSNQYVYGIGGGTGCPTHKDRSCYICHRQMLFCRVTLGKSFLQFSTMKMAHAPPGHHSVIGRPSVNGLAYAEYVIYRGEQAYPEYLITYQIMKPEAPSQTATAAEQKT
# [6] = target: T4, Protein mono-ADP-ribosyltransferase PARP10 (Homo sapiens, UniProt Q53GL7)
# T4 sequence (Q53GL7 whole entry): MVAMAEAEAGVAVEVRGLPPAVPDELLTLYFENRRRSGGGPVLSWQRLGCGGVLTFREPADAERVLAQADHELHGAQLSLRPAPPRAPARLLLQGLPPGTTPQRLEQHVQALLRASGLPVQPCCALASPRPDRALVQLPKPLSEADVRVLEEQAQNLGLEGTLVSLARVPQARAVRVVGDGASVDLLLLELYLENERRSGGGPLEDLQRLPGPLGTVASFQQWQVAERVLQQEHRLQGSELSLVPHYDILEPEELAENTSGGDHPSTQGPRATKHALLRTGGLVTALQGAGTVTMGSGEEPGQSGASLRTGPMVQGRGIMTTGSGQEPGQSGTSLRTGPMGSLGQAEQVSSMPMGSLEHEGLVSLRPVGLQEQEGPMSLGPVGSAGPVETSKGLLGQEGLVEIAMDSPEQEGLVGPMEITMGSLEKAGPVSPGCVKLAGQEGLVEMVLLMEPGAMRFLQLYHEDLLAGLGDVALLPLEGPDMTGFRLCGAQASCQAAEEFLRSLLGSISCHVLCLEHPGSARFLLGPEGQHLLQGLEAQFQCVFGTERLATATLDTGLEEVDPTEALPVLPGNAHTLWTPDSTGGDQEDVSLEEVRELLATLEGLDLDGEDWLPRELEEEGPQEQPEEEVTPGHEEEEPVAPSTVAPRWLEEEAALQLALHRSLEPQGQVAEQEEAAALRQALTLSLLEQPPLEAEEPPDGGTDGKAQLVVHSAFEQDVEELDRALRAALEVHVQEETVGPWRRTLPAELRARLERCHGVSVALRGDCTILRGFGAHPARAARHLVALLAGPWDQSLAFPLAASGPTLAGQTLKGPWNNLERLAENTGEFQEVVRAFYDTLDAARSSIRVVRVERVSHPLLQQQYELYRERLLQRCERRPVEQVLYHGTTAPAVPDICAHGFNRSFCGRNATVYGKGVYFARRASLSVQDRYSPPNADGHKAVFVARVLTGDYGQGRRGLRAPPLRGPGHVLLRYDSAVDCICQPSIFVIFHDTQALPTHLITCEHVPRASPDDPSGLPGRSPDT
# [7] = target: T1, Poly [ADP-ribose] polymerase 2; remark: listed apart in the source
# [8] = target: Protein mono-ADP-ribosyltransferase PARP4 (Homo sapiens, UniProt Q9UKK3)
# [9] = target: T4, Protein mono-ADP-ribosyltransferase PARP10; remark: listed apart in the source
# [10] = target: T5, Protein mono-ADP-ribosyltransferase PARP15 (Homo sapiens, UniProt Q460N3)
# T5 sequence (Q460N3 whole entry): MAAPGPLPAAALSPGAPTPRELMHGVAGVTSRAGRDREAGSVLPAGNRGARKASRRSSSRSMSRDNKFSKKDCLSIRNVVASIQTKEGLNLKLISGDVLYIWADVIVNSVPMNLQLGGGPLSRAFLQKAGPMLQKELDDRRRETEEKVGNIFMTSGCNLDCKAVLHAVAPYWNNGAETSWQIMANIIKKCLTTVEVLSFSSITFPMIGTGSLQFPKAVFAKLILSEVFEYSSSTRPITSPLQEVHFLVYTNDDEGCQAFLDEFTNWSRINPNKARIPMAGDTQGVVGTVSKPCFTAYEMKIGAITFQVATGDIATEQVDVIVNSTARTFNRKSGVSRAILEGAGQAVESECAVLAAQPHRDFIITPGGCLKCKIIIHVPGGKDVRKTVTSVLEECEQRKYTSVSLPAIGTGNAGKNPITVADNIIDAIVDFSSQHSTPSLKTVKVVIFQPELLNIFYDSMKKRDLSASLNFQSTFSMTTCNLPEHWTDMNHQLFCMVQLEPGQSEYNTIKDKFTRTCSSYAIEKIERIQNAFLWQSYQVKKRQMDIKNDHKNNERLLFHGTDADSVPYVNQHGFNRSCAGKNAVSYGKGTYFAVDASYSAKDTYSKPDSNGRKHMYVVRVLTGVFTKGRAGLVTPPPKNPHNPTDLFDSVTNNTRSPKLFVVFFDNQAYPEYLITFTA
# [11] = target: T6, Protein mono-ADP-ribosyltransferase PARP12 (Homo sapiens, UniProt Q9H0J9)
# T6 sequence (Q9H0J9 whole entry): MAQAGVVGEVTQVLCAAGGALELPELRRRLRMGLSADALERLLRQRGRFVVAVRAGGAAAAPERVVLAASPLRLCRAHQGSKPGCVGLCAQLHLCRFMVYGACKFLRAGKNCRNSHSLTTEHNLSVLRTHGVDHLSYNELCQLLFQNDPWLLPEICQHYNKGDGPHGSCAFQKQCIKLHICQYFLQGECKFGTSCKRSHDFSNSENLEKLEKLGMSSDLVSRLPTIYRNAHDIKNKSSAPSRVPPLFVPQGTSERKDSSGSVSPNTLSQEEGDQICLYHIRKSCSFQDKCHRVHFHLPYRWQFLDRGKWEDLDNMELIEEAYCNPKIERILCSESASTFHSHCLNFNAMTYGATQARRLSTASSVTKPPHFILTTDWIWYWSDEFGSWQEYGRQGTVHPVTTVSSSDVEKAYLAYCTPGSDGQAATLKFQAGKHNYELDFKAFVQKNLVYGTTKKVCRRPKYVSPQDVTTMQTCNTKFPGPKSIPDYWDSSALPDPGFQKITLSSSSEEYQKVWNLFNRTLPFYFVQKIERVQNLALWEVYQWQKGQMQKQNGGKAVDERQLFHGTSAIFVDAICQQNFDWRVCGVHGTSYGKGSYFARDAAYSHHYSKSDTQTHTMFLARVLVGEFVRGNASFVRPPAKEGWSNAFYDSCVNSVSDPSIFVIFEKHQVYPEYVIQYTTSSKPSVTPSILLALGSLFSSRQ
Compound,pIC50 [1],pIC50 [2],pIC50 [3],pIC50 [4],pIC50 [5],pIC50 [6],pIC50 [7],pIC50 [8],pIC50 [9],pIC50 [10],pIC50 [11]
O=C(COc1cccc2c(=O)[nH]ccc12)c1ccccc1,6.84,5.97 and 6.00,5.24,5.89,5.51,,,,,,
CN(C)CC(=O)Nc1ccc2[nH]c(=O)c3ccccc3c2c1 [PJ34],,7.47,5.38,,,5.24,6.42,6.12,5.17,5.05,
CNCc1ccc(-c2[nH]c3cc(F)cc4c3c2CCNC4=O)cc1 [RUCAPARIB],,,,,,6.24,,,5.64,4.49,5.18
C[C@]1(c2nc3c(C(N)=O)cccc3[nH]2)CCCN1 [VELIPARIB],,,4.05,5.67 and 5.69,,,,5.46,,,4.23

# pIC50: −log10 of the molar value. Several values for one entry are separate records, joined by “and”; a condition that tells them apart may be missing. Equal values may be shown once.
